Experimental data as given in patent US12116397B2, “IL-IR-I binding polypeptide” (Swedish Orphan Biovitrum AB (publ), dated 2024).

Columns and labels:
Test in all cases: cell-based or functional assay
IL-1R-I on TF-1 cells = IL-1R-I on TF-1 cells (Homo sapiens (Human), UniProt P14778)
[1] = target: IL-1R-I on human cells (Normal Human Dermal Fibroblasts; human whole blood) (human, UniProt P14778)
[2] = target: human IL-1R-I on Normal Human Dermal Fibroblasts (NHDF) cells (human, UniProt P14778)

B1: anakinra (Kineret) (other)
chain: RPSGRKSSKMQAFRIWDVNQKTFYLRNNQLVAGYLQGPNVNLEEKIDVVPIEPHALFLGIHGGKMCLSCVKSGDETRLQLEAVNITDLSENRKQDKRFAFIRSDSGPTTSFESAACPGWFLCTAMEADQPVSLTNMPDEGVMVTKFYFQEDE
In the case of B1, the “IC50, inhibition of IL-1β induced proliferation of TF-1 cells” value (IL-1R-I on TF-1 cells) is reported as 0.05 nM, the “median IC50, inhibition of IL-1β induced IL-6 release in human whole blood” value [1] is reported as 0.31 nM and the “median IC50, inhibition of IL-1β induced IL-6 release in human whole blood (figure legend)” value [1] is reported as 0.3 nM.

B2: anakinra (ligand)
chain: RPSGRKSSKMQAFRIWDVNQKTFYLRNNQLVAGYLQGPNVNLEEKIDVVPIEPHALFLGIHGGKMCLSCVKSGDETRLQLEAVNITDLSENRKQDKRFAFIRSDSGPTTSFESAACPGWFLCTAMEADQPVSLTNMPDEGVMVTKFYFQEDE
B2 was tested, and the “IC50 of inhibition of IL-1β induced IL-6 release in NHDF cells” value [2] was 0.07 nM.
